# Antibody variant affinities, Ab-91 heavy chain, assay 2

Reference: Engelhart et al. 2022, doi:10.1038/s41597-022-01779-4. File: FLAb, binding data.

All variants were tested on one target, the spike HR2 peptide PDVDLGDISGINAS (SARS-CoV-2).

The variants keep the light chain, the linker and the frameworks of Ab-91 (scFv order VL, three GGGGS repeats, VH).
VL: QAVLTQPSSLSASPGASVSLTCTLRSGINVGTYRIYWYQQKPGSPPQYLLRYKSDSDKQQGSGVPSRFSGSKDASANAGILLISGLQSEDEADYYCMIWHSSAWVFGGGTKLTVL
VH: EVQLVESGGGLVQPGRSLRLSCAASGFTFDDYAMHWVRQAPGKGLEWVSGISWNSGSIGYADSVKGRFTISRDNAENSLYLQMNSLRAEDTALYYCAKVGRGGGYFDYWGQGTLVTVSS

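The starting antibody came from a phage panning campaign against this peptide. Library AAYL51 holds single substitutions and randomly drawn double and triple substitutions in the CDRs. Affinity was read by AlphaSeq, a pooled yeast mating assay with surface-displayed partners. After mating in shaken culture at 30 °C for 16 h, diploids were selected and their barcode pairs sequenced. The ratio of observed to expected reads was calibrated, replicate by replicate, on BCL2-family standards whose Kd was known from biolayer interferometry. There are three technical replicates.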

The parent's heavy chain CDRs are GFTFDDYAMH, GISWNSGSIGYADSVK, VGRGGGYFDY; each variant's own CDRs replace them letter for letter. Values are log10 of the apparent Kd in nM; lower means stronger binding. An entry "n.d." has no value in the source: the pair was not observed among the diploids in that replicate. This suggests poor binding but is not conclusive. Background: pairings of library AAYL51 with three empty control strains gave a value in 21% of cases (median 4.54, 5th percentile 3.26). Values in that range, when seen in few replicates, are hard to tell from nonspecific mating. The control count says in how many pairings with the empty strains this scFv gave a signal, with their mean in brackets.

| # | CDR-H1 | CDR-H2 | CDR-H3 | replicates, log10 nM | control signals |
|---|---|---|---|---|---|
| 1 | GFTFDDKAMH | GISWNSGSIGYADSVK | VGRGGGREDY | n.d. n.d. n.d. | 0 of 9 |
| 2 | GFTFDDYAMH | GICWNDGSIGYADSGK | VGRGGGYFDY | 4.64 4.55 4.61 | 5 of 9 (4.74) |
| 3 | GFTWDDYAMH | GISGNSGSIGYADSVK | VGRLGGYFDY | n.d. n.d. n.d. | 1 of 9 (4.70) |
| 4 | GFTFDDYAMH | GISWEDGSIGYADSVK | VGRGGGYADY | n.d. 6.14 n.d. | 2 of 9 (5.22) |
| 5 | GFTFPDYAMH | GISWNSNSIGYADSVK | VGRMGGYFDY | n.d. n.d. n.d. | 0 of 9 |
| 6 | GHTFDDYAMH | GISWNSGSQGYADSVK | VGRGGGYFMY | 4.87 5.69 n.d. | 5 of 9 (4.41) |
| 7 | GFTFDDYAMV | GISWLSGSIGYADKVK | VGRGGGYFDY | n.d. 6.21 n.d. | 4 of 9 (5.04) |
| 8 | GFTFDDYAFH | GISYNSGSIGYADSVK | VGRGGGYFDY | 1.00 1.02 0.46 | 2 of 9 (4.60) |
| 9 | GFTFDDYAHH | GIIWNSGSIGYADSVK | VGRGPGYFDY | 5.60 n.d. n.d. | 6 of 9 (5.76) |
| 10 | GFTFDMYAMI | GISWNSGSIGYADSVC | VGRGGGYFDY | n.d. n.d. n.d. | 3 of 9 (3.90) |
| 11 | GFTFDDYAMH | GISQNSGSIVYADSVK | VGRGGGYFDY | 4.69 5.60 n.d. | 3 of 9 (4.71) |
| 12 | GFTFDDYAMH | WMSWNSGSIGYADSVK | TGRGGGYFDY | n.d. n.d. n.d. | 3 of 9 (4.54) |
| 13 | GFTFDDYAMS | GISWTSGSIGYADSIK | VGRGGGYFDY | n.d. n.d. n.d. | 1 of 9 (1.72) |
| 14 | GFTFDDYIMH | GNSWNKGSIGYADSVK | VGRGGGYFDY | n.d. n.d. n.d. | 1 of 9 (4.15) |
| 15 | GFTFDDYAMH | GISWNSGYIGYADSVK | VGRGGRYHDY | n.d. 2.23 n.d. | 0 of 9 |
| 16 | GFTFDDYAMH | GISWVSGSIGYADSVK | VGREGGYFDD | n.d. n.d. n.d. | 1 of 9 (4.16) |
| 17 | GFTDDDPAMH | IISWNSGSIGYADSVK | VGRGGGYFDY | 4.07 n.d. 4.80 | 3 of 9 (4.31) |
| 18 | GFTFDDYAMH | GTSWNSRSIGYADSVK | VGRGGGLFDY | 5.29 n.d. 3.55 | 1 of 9 (4.00) |
| 19 | GFTFDDYAMH | GISWNSGSIGYADSVK | VGRGGGTFDY | n.d. 3.18 3.07 | 0 of 9 |
| 20 | GGTFDDYAMH | GICWNSGSIAYADSVK | VGRGGGYFDY | n.d. 6.06 4.71 | 6 of 9 (5.06) |
| 21 | GFTFDDYAMH | GISWNSGSIGYADSVK | VGRGKGYQDL | 1.31 3.03 1.81 | 0 of 9 |
| 22 | GFTFDDYAMH | GISWHSGHIGYADSVK | VGRGGGYFDY | n.d. 4.81 3.41 | 1 of 9 (5.91) |
| 23 | GFTFDDYAMH | GISYNSGDIGYADSVK | VGRGGGYFDY | n.d. n.d. n.d. | 0 of 9 |
| 24 | GFTFDDYAMH | GISWNTGSIGYADSAK | VGKGGGYFDY | 3.23 4.27 n.d. | 0 of 9 |
| 25 | GFTFDDYARH | GISFNSGSIGYADSVK | VGRGGGYYDY | n.d. n.d. n.d. | 0 of 9 |
| 26 | GFTFDDYAMH | GISWNSFSWGYADSVK | TGRGGGYFDY | 2.66 n.d. n.d. | 2 of 9 (3.63) |
| 27 | GFTFDDYAMH | GISWASGSIGYADSVK | VLRGGGYFKY | n.d. n.d. n.d. | 0 of 9 |
| 28 | GFTFEDYAMH | GFSWHSGSIGYADSVK | VGRGGGYFDY | n.d. n.d. n.d. | 2 of 9 (3.72) |
| 29 | GFTFDQYAMH | GIMWNSGSIGYADSVK | VGRGGGYFDY | 1.80 1.99 1.81 | 0 of 9 |
| 30 | GFTFDDYAMH | GISWNSGSIGYAASVT | VGRGGNYFDY | n.d. n.d. n.d. | 0 of 9 |
| 31 | GFTFDDYAMH | GITANSGSIGYADSVG | VGRGGGYFDY | 2.99 5.30 n.d. | 2 of 9 (4.08) |
| 32 | FFTFDHYAMH | GISWNSTSIGYADSVK | VGRGGGYFDY | n.d. 5.89 n.d. | 1 of 9 (2.85) |
| 33 | GFTGDDYWMH | GISWNSGSIGYADSVK | VGKGGGYFDY | n.d. n.d. n.d. | 1 of 9 (4.72) |
| 34 | GFTFDDYAMH | GISWNSGSIGYANSQK | VGRGGGNFDY | 3.83 n.d. n.d. | 0 of 9 |
| 35 | GFTFDDPAMH | GISWNSGSIGYADLVP | VGRGGGYFDY | n.d. n.d. n.d. | 0 of 9 |
| 36 | GFYFDDYAMH | GISWNSGSIGYADSPK | VGRGGGVFDY | n.d. n.d. 3.65 | 3 of 9 (2.45) |

For reference, 4 entries of the list once more:

| CDR-H1 | CDR-H2 | CDR-H3 | replicates, log10 nM | control signals |
|---|---|---|---|---|
| GFTGDDYWMH | GISWNSGSIGYADSVK | VGKGGGYFDY | n.d. n.d. n.d. | 1 of 9 (4.72) |
| GFTFDDYAMH | GISYNSGDIGYADSVK | VGRGGGYFDY | n.d. n.d. n.d. | 0 of 9 |
| GHTFDDYAMH | GISWNSGSQGYADSVK | VGRGGGYFMY | 4.87 5.69 n.d. | 5 of 9 (4.41) |
| GFTFDDYAMV | GISWLSGSIGYADKVK | VGRGGGYFDY | n.d. 6.21 n.d. | 4 of 9 (5.04) |